In data set [1] the test system is patients with stage D1 or D2 metastatic prostate cancer or a rising PSA level after local therapy. As to the kind of experiment: Endocrine-related questionnaire: occurrence of hot flashes during treatment (Example 1). The format is in vivo, human. The settings on record: for patients experiencing hot flashes: Example 1 treatment regimens.
For data set [2] the test system is unchanged. The data set can be described thus: Questioning of treated patients on the occurrence of gynaecomastia (Example 2). Format: in vivo, human. The settings on record: patients treated as in Example 1.
The test system is the same in data set [3]. As to the kind of experiment: Questionnaire on frequency, severity and duration of hot flashes, 4 weeks of treatment (Example 4). Format: in vivo, human.
The test system of data set [4] is gynaecomastia. The settings on record: in vivo; cited from earlier work.
Data set [5] relates to hot flashes. The settings on record: in vivo; cited from earlier work.

Turning to “Ac-D-Nal^1, 4-Cl-D-Phe^2, D-Pal^3, N-Me-Tyr^5, D-Asn^6, Lys(iPr)^8, D-Ala^10-LHRH [PPI-149]”, the “patients experiencing hot flashes” value in data set [1] is given as “did not experience hot flashes”. Moreover, in data set [1] (patients with hot flashes / patients treated, PPI-149 at 30 mg/kg/day or 50 mg/kg/day, e.g. 14 or 28 days), the “Occurence of Hot Flashes” value is given as 0/8. In addition, in data set [2], the “occurrence of gynaecomastia compared with leuprolide depot” value is given as “experienced gynaecomastia to a lesser extent”. Besides, in data set [3] (4 weeks of treatment, duration 0-2 minutes), the “Duration of Hot Flashes: patients with 0-2 minutes” value is 31%. In addition, the “Duration of Hot Flashes: patients with 0 minutes” value in data set [3] (4 weeks of treatment, duration 0 minutes) amounted to 61%. For the same substance, the “Duration of Hot Flashes: patients with ≧5 minutes” value in data set [3] (4 weeks of treatment, duration ≧5 minutes) is given as 8%. Moreover, the “Severity of Hot Flashes: patients with mild-moderate hot flashes” value in data set [3] (4 weeks of treatment, mild-moderate) is on record as 38%. In addition, in data set [3] (4 weeks of treatment, moderate-severe), the “Severity of Hot Flashes: patients with moderate-severe hot flashes” value was found to be 0%. The “Occurrence of Hot Flashes: patients with 1-4 hot flashes/week” value in data set [3] (4 weeks of treatment, number of hot flashes/week 1-4) is given as 19%. Moreover, in data set [3] (4 weeks of treatment, number of hot flashes/week 5->10), the “Occurrence of Hot Flashes: patients with 5->10 hot flashes/week” value is recorded as 20%. Besides, the “Severity of Hot Flashes: patients with severity 0” value in data set [3] (4 weeks of treatment, severity 0) was 62%. Also, in data set [3] (first 4 weeks of treatment), the “duration of hot flashes compared with leuprolide and anti-androgen” value is “lasted for a shorter period of time”; the “frequency of hot flashes compared with leuprolide and anti-androgen” value was “experienced hot flashes less frequently”; the “severity of hot flashes compared with leuprolide and anti-androgen” value is “less severe”.

Consider CLOMIPHENE, for which, in data set [4], the “side effects in gynaecomastia treatment” value is “associated with adverse side-effects”.

On to Medthyldopa, for which the “side effects associated with the treatment” value (“side effects associated” below) in data set [5] was “fatigue, weakness, dizziness, and nausea”.

As to Tamoxifen, in data set [5], the “side effects associated” value is on record as “hot flashes are also the most frequent side effect”.

Take clonidine: the “side effects associated” value in data set [5] is “drowsiness, constipation, orthostatic hypotension, dry mouth, headache, nausea, fatigue, and decreased libido”.

With leuprolide [reference compound], the “patients experiencing hot flashes” value in data set [1] was “more than half of the patients”.

The values are drawn from patent publication US6703367B1, “Methods for treating hot flashes and gynaecomastia” (Praecis Pharmaceuticals Inc., priority 2001, dated 2004).
